Results: published antibiotic growth screens (doi:10.1038/s41589-023-01349-8)
This is one part of the list.

The compounds below were run on A. baumannii ATCC 17978 (assay: relative growth (fraction of control); higher = less inhibition). Conditions: 50 µM.

SMILES	relative growth
C=CCC[C@@H](Cc1ccc(F)cc1)C(=O)O[C@H](CNC(=O)[C@@H](CC=C)CC(=O)N[C@@H](CO)Cc1ccccc1)c1ccccc1	1.27
FC(F)(F)c1ccccc1/N=C1\CCCc2ccccc21	0.695
O=C(C[C@@H]1C[C@@H]2c3cc(NC(=O)NC4CCCC4)ccc3O[C@@H]2[C@@H](CO)O1)NCc1ccc(-c2ccccc2)cc1	0.96
CC(=O)OC/C=C(\C)CC/C=C(\C)CC/C=C(\C)CC/C=C(\C)CC/C=C(\C)CC/C=C(\C)CC/C=C(\C)CC/C=C(\C)CCC=C(C)C	1.01
O=C(C[C@@H]1C=C[C@H](NC(=O)c2cnccn2)[C@@H](CO)O1)NCc1ccccc1F	1.05
CCCN(C)C[C@H]1Oc2cc(C#Cc3ccc(OC)cc3)ccc2S(=O)(=O)N([C@H](C)CO)C[C@H]1C	0.829
NCCCCCC(=O)O	0.866
CS(=O)(=O)O.CSc1ccc2c(c1)C(N1CCN(C)CC1)Cc1ccccc1S2 (stereo not drawn)	0.138
Cc1ccc(S(=O)(=O)N[C@H]2CC[C@@H](CC(=O)NCc3ccc(Cl)c(Cl)c3)O[C@@H]2CO)cc1	0.998
CC1=CC(=O)C2=C(C)CC[C@@H]3[C@H](OC(=O)[C@H]3C)[C@@H]12	0.91
CC1=C(C)C(=O)C(C(CCCCCC(=O)O)c2ccccc2)=C(C)C1=O (stereo not drawn)	1.16
CC(C)(C)OC(=O)CC[C@]1(C(=O)NCCN2CCOCC2)COC(c2ccc(OCCCO)cc2)=N1	1.06
C[C@H]1CN([C@@H](C)CO)C(=O)c2cc(C#Cc3cccc(F)c3)cnc2O[C@H]1CN(C)C(=O)C1CCOCC1	0.973
Cl.Cl.Cl.NCCCCNCCCN	0.858
COc1cccc(C#Cc2ccc3c(c2)O[C@@H](CN(C)C(C)=O)[C@H](C)CN([C@@H](C)CO)S3(=O)=O)c1	0.859
CC(=O)[C@@]1(O)CC[C@H]2[C@@H]3CCC4=CC(=O)CC[C@]4(C)[C@H]3CC[C@@]21C	0.97
O=C(C[C@@H]1C[C@H]2c3cc(NC(=O)c4ccc5c(c4)OCO5)ccc3O[C@H]2[C@H](CO)O1)NCc1ccccn1	1.04
COc1ccccc1S(=O)(=O)N[C@H]1C=C[C@H](CC(=O)N2CCOCC2)O[C@H]1CO	1.14
CC1(C)[C@@H](O)CC[C@]2(C)C3CC=C4[C@@H]5C[C@@]6(C)C[C@H](OC6=O)[C@]5(C)CC[C@@]4(C)[C@]3(C)CC[C@@H]12 (stereo partly drawn)	0.979
C[C@H]1CN([C@@H](C)CO)C(=O)c2cc(-c3cccc(C(=O)N(C)C)c3)cnc2O[C@@H]1CN(C)C(=O)Cc1ccccn1	1.04
COc1ccc(-c2cc(=O)c3c(O)cc(O[C@@H]4O[C@H](CO[C@H]5O[C@H](C)[C@@H](O)[C@H](O)[C@@H]5O)[C@@H](O)[C@H](O)[C@H]4O)cc3o2)cc1O	0.985
Cc1ccccc1S(=O)(=O)N1C[C@@H](O)COC[C@H]2O[C@H](CC(=O)N3CCC(Cc4ccccc4)CC3)CC[C@@H]21	0.669
C[C@H](O)C#Cc1ccc2c(c1)O[C@H](CN(C)C(=O)c1ccncc1)[C@H](C)CN([C@@H](C)CO)S2(=O)=O	1.1
O=C(C[C@H]1C=C[C@H](NC(=O)CN2CCOCC2)[C@@H](CO)O1)NCCc1ccncc1	0.931
CC[C@@H](O)C#CCN1CCN(C)CC1	1.1
CCOC(=O)Cc1c(C)[nH]c(=O)[nH]c1=O	0.885
CCCc1nc(C(C)(C)O)c(C(=O)O)n1Cc1ccc(-c2ccccc2-c2nn[nH]n2)cc1	1.01

SMILES	relative growth
O=C(c1ccc(F)cc1)C1CCN(CCn2c(=O)[nH]c3ccccc3c2=O)CC1	0.881
C[C@]12CC[C@H](O)CC1=CC[C@@H]1C2CC[C@]2(C)C(c3cccnc3)=CCC12 (stereo partly drawn)	1.04
Cc1ccc(C(=O)C(C)CN2CCCCC2)cc1.Cl (stereo not drawn)	0.914
Cc1c(/C=N/c2ccc(C(C)C)cc2)sc2ccccc12	1
Nc1ccc(-n2cccc2)cc1Cl	0.948
Oc1cc2c(cc1O)C1c3ccc(O)c(O)c3OCC1(O)C2 (stereo not drawn)	1.31
C[C@@H](SC(=S)N1CCOCC1)C(=O)O	0.794
COc1ccc(-c2cc(=O)c3c(O)c(OC)c(OC)c(OC)c3o2)cc1	1
CCCC#Cc1ccc2c(c1)O[C@@H](CN(C)Cc1ccc3c(c1)OCO3)[C@@H](C)CN([C@H](C)CO)S2(=O)=O	0.965
COC[C@H]1CN(C)N=C(C2CC2)O1	0.798
CCN(CC)C(=O)c1ccc(O)c(OC)c1	0.943
C[C@@H](NC(=O)C[C@@H]1C=C[C@@H](NC(=O)CN2CCOCC2)[C@H](CO)O1)c1ccccc1	1.06
[N-]=[N+]=Nc1ccccc1[C@H]1OC(c2ccc(OCCCO)cc2)=N[C@@]1(Cc1ccccc1)C(=O)NC[C@@H](O)CO	0.848
COc1ccc(S(=O)(=O)N(C)C[C@@H]2Oc3c(NC(=O)Nc4cccc5ccccc45)cccc3C(=O)N([C@@H](C)CO)C[C@H]2C)cc1OC	1.09
Cc1ccc(S(=O)(=O)N(C)C[C@@H]2Oc3ncc(C#CC4(O)CCCC4)cc3C(=O)N([C@H](C)CO)C[C@@H]2C)cc1	0.826
CCN(CC)CCCC(C)Nc1c2ccc(Cl)cc2nc2ccc(OC)cc12.Cl.Cl (stereo not drawn)	1.03
O=C(C[C@@H]1CC[C@@H]2[C@H](COC[C@H](O)CN2S(=O)(=O)c2ccccc2)O1)N[C@@H]1CCN(Cc2ccccc2)C1	1.02
NNC(=O)CNc1ccc2c(c1)OCO2	1.03
Cc1ccc(-c2cnc3c(c2)C(=O)N([C@H](C)CO)C[C@@H](C)[C@@H](CN(C)C(=O)Cc2cccnc2)O3)cc1	1.14
O=C1NCCC[C@@H]1C(=O)N1CCCCC1	1.01
CNC(=O)c1ccc(N)cc1	0.943
NC(=O)NCc1ccccn1	0.923
Cc1cc2nc3c(=O)[nH]c(=O)nc-3n(C[C@H](O)[C@H](O)[C@H](O)CO)c2cc1C	0.867
O=C(CN1CCOCC1)NCC[C@H]1CC[C@H](NS(=O)(=O)c2ccc(F)cc2)[C@@H](CO)O1	1.05
C[C@H]1CN([C@@H](C)CO)C(=O)c2cc(C#Cc3ccccc3F)cnc2O[C@@H]1CN(C)C(=O)Cc1cccnc1	0.896
Cn1cnc(S(=O)(=O)N2C[C@@H](O)COC[C@H]3O[C@H](CC(=O)NC4CCC4)CC[C@@H]32)c1	1.11
